## AlphaSeq binding of Ab-91 heavy chain variants to a spike HR2 peptide

Source: Engelhart et al. 2022 (doi:10.1038/s41597-022-01779-4), MIT Lincoln Laboratory and A-Alpha Bio; data file from the FLAb repository.

Binding partner: SARS-CoV-2 spike HR2 peptide, sequence PDVDLGDISGINAS.

Parent: Ab-91, a human scFv built as VL, the linker GGGGSGGGGSGGGGS, VH. Only the CDRs of the heavy chain vary.
VL: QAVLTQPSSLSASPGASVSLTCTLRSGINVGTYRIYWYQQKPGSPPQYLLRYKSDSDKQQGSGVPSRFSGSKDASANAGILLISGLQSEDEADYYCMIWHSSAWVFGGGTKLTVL
VH: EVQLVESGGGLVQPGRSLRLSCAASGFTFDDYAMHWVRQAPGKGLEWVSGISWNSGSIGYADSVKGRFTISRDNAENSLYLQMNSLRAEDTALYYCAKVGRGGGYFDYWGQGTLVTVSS

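The parent was found by panning a naive human phage display library on the peptide. Library AAYL51 holds single substitutions and randomly drawn double and triple substitutions in the CDRs. In AlphaSeq, yeast of one mating type display the scFv and yeast of the other type display the target. Mating (16 h, 30 °C) was followed by selection of diploids and sequencing of their barcodes. A regression on co-assayed BCL2-family reference pairs converts the normalised counts of each replicate to an apparent Kd. The assay was run in three technical replicates.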

Variants are written as CDR1, CDR2 and CDR3 of the heavy chain (limits as in the source). Parent: GFTFDDYAMH, GISWNSGSIGYADSVK, VGRGGGYFDY. Values are log10 of the apparent Kd in nM; lower means stronger binding. A mean of the replicates is given; it leaves out those without a signal. A pair that was not seen in that replicate is written "nd"; this usually means weak binding, but a binder can also be missed.

CDR-H1	CDR-H2	CDR-H3	log10 Kd (nM) by replicate	log10 Kd (nM), mean	empty controls
GFTFDDYAMH	GISWNSGSIVYADPAK	VGRGGGYFDY	3.87 / 6.04 / nd	4.95	2/9 (4.73)
GFTFDDYAMH	GASWNTGSIGYADSVK	WGRGGGYFDY	nd / nd / nd	nd	0/9
GFTFDDYEMH	GISWNSGSIGYADSVG	VGRGGGYFDY	3.61 / nd / nd	3.61	1/9 (3.02)
GFTFDDYAMH	EISWNSGSIGYADSVA	VGRGIGYFDY	nd / nd / nd	nd	0/9
GFTFDDYAMH	GIFWNSGSIGYADSVK	VPRGGGYFDY	nd / nd / nd	nd	1/9 (2.75)
GFTFDCYAMH	GISWNSGSIGIADSVK	VPRGGGYFDY	4.08 / nd / nd	4.08	1/9 (4.53)
GFTFDDYAMH	GISRNSGSFGYADSVK	VGRGGGYFDY	2.88 / 3.44 / 3.06	3.13	0/9
GFHMDPYAMH	GISWNSGSIGYADSVK	VGRGGGYFDY	1.84 / 1.59 / 1.81	1.75	0/9
GFTFDDYAMH	GISWNSGSIGYADSVA	VGRGHGYGDY	nd / nd / nd	nd	1/9 (2.38)
GFTFDDYAMH	GISWNSWSIGYADSYK	VGRGDGYFDY	4.91 / nd / 4.41	4.66	2/9 (4.71)
GFTFDDYAMH	WISWNSGSIGYADSVK	VARGGGYFDY	nd / nd / nd	nd	0/9
GFTFDNYAMH	GISWNSGSIGYADMVC	VGRGGGYFDY	nd / 6.29 / nd	6.29	3/9 (4.38)
GFTFDDYMMH	GISWNSLSIKYADSVK	VGRGGGYFDY	nd / nd / nd	nd	0/9
GFTNDDYAMH	GISWNSGPIGYADSVK	VGRGGYYFDY	nd / 4.21 / 5.87	5.04	3/9 (4.57)
GFTFDDYAML	GISWNSGHIGYADSVK	VGRGGGYHDY	4.73 / 5.72 / nd	5.22	7/9 (5.22)
NFTFDDYAMH	GISWNSGSIGYADSVK	VHRGGGYFDF	nd / nd / nd	nd	0/9
GWTFDDYAMH	GISWNSGSIGYADSVQ	VGRGGGYFQY	nd / 3.92 / nd	3.92	3/9 (4.61)
GFTEDDYAMH	GISWNSYSIGYAESVK	VGRGGGYFDY	2.78 / nd / nd	2.78	1/9 (3.64)
GTTFDDYAMH	GISWNSGSIGIPDSVK	VGRGGGYFDY	nd / nd / nd	nd	3/9 (4.30)
GFTFDDYAMY	GISWNSGSIGYADSVK	VGDGGGRFDY	nd / nd / nd	nd	1/9 (3.62)
GFTFDDYAMH	GISWNSSSIGYTDSVK	VGRNGGYFDY	3.07 / nd / nd	3.07	0/9
GFTFDDYALH	GISWNSGSIGYADCVK	VSRGGGYFDY	nd / nd / 3.79	3.79	1/9 (5.39)
GFTFDDRAMH	GISWNSGSISYADSTK	VGRGGGYFDY	nd / nd / nd	nd	0/9
GFTFDDYADH	GISYNSGSIGYWDSVK	VGRGGGYFDY	nd / nd / nd	nd	3/9 (5.40)
GFTSDDYAMH	GISWNSGSIGYAESVK	VGRGGGYFDQ	3.24 / 2.83 / nd	3.04	0/9
GFTFDDYACH	GISWNSTSIGYADSVK	VGRGGGYFDY	nd / nd / nd	nd	2/9 (4.16)
GFTFDDYAMH	GISKNSGSIGYAASVQ	VGRGGGYFDY	4.33 / nd / nd	4.33	7/9 (4.86)
GFTFDDYAMH	GISWNSGSIGLADHVP	VGRGGGYFDY	nd / nd / nd	nd	2/9 (4.68)
GPTFDDYAMH	GISWNSGSIGYADSVK	VGRGLGYFDQ	4.75 / nd / 4.66	4.70	3/9 (4.30)
GFTFDDMAMH	GISWNSGSLGYADSMK	VGRGGGYFDY	2.72 / 2.39 / 3.44	2.85	1/9 (5.17)
GFTFDDYAMH	MISWNSGVIGMADSVK	VGRGGGYFDY	nd / nd / 4.36	4.36	3/9 (3.61)

The opening 2 entries, copied out:

CDR-H1	CDR-H2	CDR-H3	log10 Kd (nM) by replicate	log10 Kd (nM), mean	empty controls
GFTFDDYAMH	GISWNSGSIVYADPAK	VGRGGGYFDY	3.87 / 6.04 / nd	4.95	2/9 (4.73)
GFTFDDYAMH	GASWNTGSIGYADSVK	WGRGGGYFDY	nd / nd / nd	nd	0/9

Empty control strains, which show no peptide, gave a signal in 21% of pairings with library AAYL51; the median was 4.54 and 95% of these signals were weaker than 3.26. No background was subtracted. Also given: how often the same scFv was detected with the empty control strains, with their mean in brackets.